# Experimental properties from OPERA 2.9

Data: OPERA 2.9 data sets, kmansouri/OPERA on GitHub.

The melting point is given in degrees Celsius.
Boiling points are in °C, nominally at 760 mmHg.
logP is the log10 of the octanol-water partition coefficient; higher is more lipophilic.
Water solubility is log10 of mol/L, nominally at 25 °C; higher is more soluble.
Vapor pressure is log10 of mmHg; the set covers 15 to 30 °C, mostly 20 to 25 °C.
Henry's law constant (air-water partitioning) is log10 of atm·m3/mol, nominally at 25 °C.
fu is the fraction unbound in human plasma, from 0 to 1.
Clint is human hepatic intrinsic clearance in µL/min per million cells; 0 means that no clearance was seen.

Listed for C=CC(=O)NCNC(=O)C=C: mp 180 °C and fu 1.
Listed for N=C(Nc1ccccc1)Nc1ccccc1: boiling point 170 °C and logP 2.055 and log H -12.32 (log10 atm·m3/mol).
Listed for Cc1cc(C)nc(NC(=O)NS(=O)(=O)c2ccccc2C(=O)OC2COC2)n1: vapor pressure -7.824 (log10 mmHg) and log H -9.608 (log10 atm·m3/mol) and fu 0.06081.
Listed for CCNc1nc(Cl)nc(NCC)n1: log H -9.258 (log10 atm·m3/mol) and fu 0.2834 and Clint 6.33 µL/min/10^6 cells.
Listed for Cc1ccn2nc(S(=O)(=O)Nc3c(F)cccc3F)nc2n1: logP 0.21 and Clint 7.52 µL/min/10^6 cells.
Listed for [S-]c1nc2ccccc2[nH]1.[S-]c1nc2ccccc2[nH]1.[Zn+2]: log solubility -3.908 (log10 mol/L) and vapor pressure -6.815 (log10 mmHg).
Listed for OCCCC(F)(F)C(F)(F)F: logP 1.59 and vapor pressure -0.084 (log10 mmHg).
Listed for CNC(=O)c1cc(C#N)cc(C)c1NC(=O)c1cc(Cn2nnc(C(F)(F)F)n2)nn1-c1ncccc1Cl: mp 228.8 °C and logP 2.6 and log solubility -5.697 (log10 mol/L) and vapor pressure -7.546 (log10 mmHg).
Listed for CCOc1ccc(N)cc1: fu 0.485 and Clint 13.8 µL/min/10^6 cells.
Listed for Oc1ccc2c3c1O[C@H]1[C@@H](O)CC[C@@]4(O)[C@@H](C2)N(CC2CCC2)CC[C@]314: mp 230 °C and logP 1.4 and log solubility -2.233 (log10 mol/L).
Listed for O=C(O)CCCOc1ccc(Cl)cc1Cl: vapor pressure -7.15 (log10 mmHg) and log H -8.514 (log10 atm·m3/mol).
Listed for N#CC(F)(C(F)(F)F)C(F)(F)F: logP 4.3 and log solubility -5.856 (log10 mol/L).
Listed for O=[N+]([O-])c1ccccc1: fu 0.3844 and Clint 8.168 µL/min/10^6 cells.
Listed for O=C(NC(=O)c1c(F)cccc1F)Nc1ccc(Oc2ccc(C(F)(F)F)cc2Cl)cc1F: mp 168.8 °C and logP 6.16 and log H -10.58 (log10 atm·m3/mol).
Listed for O=C(Cc1ccccc1)OCCc1ccccc1: logP 3.797 and log solubility -4.114 (log10 mol/L) and vapor pressure -1.173 (log10 mmHg).
Listed for Nc1ccccc1C(=O)Oc1ccc2ccccc2c1: mp 118 °C and Clint 846 µL/min/10^6 cells.
Listed for CCc1nn(C)c(C(=O)NCc2ccc(C(C)(C)C)cc2)c1Cl: vapor pressure -7.529 (log10 mmHg) and log H -7.964 (log10 atm·m3/mol) and Clint 15.94 µL/min/10^6 cells.
Listed for Cc1cc(C)c(C(=O)P(=O)(C(=O)c2c(C)cc(C)cc2C)c2ccccc2)c(C)c1: logP 5.77 and vapor pressure -8.625 (log10 mmHg).

The last 2 entries again:

CCc1nn(C)c(C(=O)NCc2ccc(C(C)(C)C)cc2)c1Cl has vapor pressure -7.529 (log10 mmHg) and log H -7.964 (log10 atm·m3/mol) and Clint 15.94 µL/min/10^6 cells.
Cc1cc(C)c(C(=O)P(=O)(C(=O)c2c(C)cc(C)cc2C)c2ccccc2)c(C)c1 has logP 5.77 and vapor pressure -8.625 (log10 mmHg).

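These are experimental values that the OPERA curators gathered from public databases to train and test their QSAR models. One number stands for a compound and property, with no spread given. Method and conditions are not stated for these values. A value may pool stereoisomers or salt forms, and the file does not say which form was measured. Unmarked limits or estimates from the upstream databases cannot be ruled out.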